Laboratory results published in US20030118510A1 (priority 2001, published 2003).

Legend:
[1] = i.t.
Experimental: The rats were lightly anesthetized using inhaled 3.0-5.0% Isoflurane (Abbott Laboratories) mixed with oxygen for approximately 5 minutes in a plexiglass anesthesia chamber. Administration was accomplished by insertion of a gavage needle (Popper & Sons Inc.; 18×3″ W2-¼ mm ball, New Hyde Park, N.Y. 11040) fitted into a 1 mL syringe into the mouth of the rat down the trachea to just above the main carina. When inserting the gavage needle into the trachea, proper insertion was detected by feeling for the roughness of the cartilage rings under the skin of the throat using the ball of the gavage needle. Doses were administered into the lungs utilizing this method, and followed by removal of the gavage needle.
Fourteen (N=7/Group) fasted male rats (Hilltop Lab Animals, Scottsdale, Pa. (300-350 g)) with indwelling jugular vein catheters (JVC) were used for this study.

[2] = rats, 20, 30, 40 μg/animal

## N^αB1-Methoxypoly(ethylene glycol)5K- propionamido-insulin [5K PEG insulin]
[1]; 150 μg/animal vs non-pegylated insulin 40 μg/animal
  duration of action compared with non-pegylated insulin (profiles in FIG. 4): longer acting than non-pegylated insulin
[1]; 150 μg/animal, male rats
  time at which blood levels of insulin were observed following intratracheal administration: ≤ 1 h
[2]
  mean serum insulin concentrations following i.v. administration: dose dependent
